From PMC6744613 (ACS chemical neuroscience, 2018)
Like-named read-outs stand apart in the source and are kept apart here.

Chains of the proteins cited; added tags and fusions are not shown. Residues count along the entry.
UniProt P23219, 24-599: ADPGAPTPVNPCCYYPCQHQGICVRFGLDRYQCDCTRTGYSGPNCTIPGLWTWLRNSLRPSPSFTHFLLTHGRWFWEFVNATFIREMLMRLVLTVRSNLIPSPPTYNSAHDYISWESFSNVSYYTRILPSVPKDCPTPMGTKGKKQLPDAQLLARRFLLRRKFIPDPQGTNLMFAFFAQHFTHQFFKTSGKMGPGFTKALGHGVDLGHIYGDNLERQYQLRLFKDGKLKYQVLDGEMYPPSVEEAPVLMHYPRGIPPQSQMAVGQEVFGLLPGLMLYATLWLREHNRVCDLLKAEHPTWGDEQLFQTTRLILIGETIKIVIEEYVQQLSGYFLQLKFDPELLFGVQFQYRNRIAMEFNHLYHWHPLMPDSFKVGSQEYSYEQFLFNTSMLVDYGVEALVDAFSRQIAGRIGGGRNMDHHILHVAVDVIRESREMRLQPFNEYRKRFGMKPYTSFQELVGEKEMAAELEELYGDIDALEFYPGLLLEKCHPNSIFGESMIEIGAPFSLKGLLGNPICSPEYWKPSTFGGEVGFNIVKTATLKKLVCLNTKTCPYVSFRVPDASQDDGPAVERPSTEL

Biological target: COX-1 (Homo sapiens, UniProt P23219)
Experiment: COX-1 whole-blood enzymatic immunoassay
Assay type: cell-based

IC50	IC50 (read-out: IC50 COX-1 Human, human whole blood, mean ± SD (n = 3))	SMILES
1 ± 0.2 nM		COc1ccc(-c2nc(OCC(F)(F)F)nn2-c2ccc(OC)cc2)cc1 [Inhibitor 20, 1,5-Bis(4-methoxyphenyl)-3-(2,2,2-trifluoroethoxy)-1H-1,2,4-triazole]
	5 ± 5.2 nM	COc1ccc(-c2nc(OC)nn2-c2ccc(OC)cc2)cc1 [Inhibitor 5]
